Values of other authors in US7326685B2, “Diagnostic or therapeutic somatostatin or bombesin analog conjugates and uses thereof” (The Administrators of the Tulane Educational Fund, priority 2001, dated 2008).

Details: in vivo; cited from earlier work

For mitomycin C, the MTD is given as 20 mg/m^2.
